Antibody variant affinities, Ab-14 heavy chain, assay 1

The measurements come from Engelhart et al. 2022 (doi:10.1038/s41597-022-01779-4) through the FLAb antibody collection.

Target peptide (SARS-CoV-2 spike, HR2 region): PDVDLGDISGINAS

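Phage display of a naive human antibody library on the peptide gave the parent. In library AAYL49, one, two or three CDR residues were substituted; doubles and triples were drawn at random. Affinity was read by AlphaSeq, a pooled yeast mating assay with surface-displayed partners. Pairs that bind mate more often; barcode pairs of the diploids are counted by sequencing. Scores were corrected for input abundance and mapped to Kd with protein pairs of known affinity run in the same pool. The assay was run in three technical replicates.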

Parent scFv Ab-14: VH joined to VL by a (GGGGS)3 linker. Changes lie in the heavy chain CDRs alone.
VH: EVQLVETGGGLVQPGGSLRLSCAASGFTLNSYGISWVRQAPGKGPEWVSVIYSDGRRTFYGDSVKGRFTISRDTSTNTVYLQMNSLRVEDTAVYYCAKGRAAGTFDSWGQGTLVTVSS
VL: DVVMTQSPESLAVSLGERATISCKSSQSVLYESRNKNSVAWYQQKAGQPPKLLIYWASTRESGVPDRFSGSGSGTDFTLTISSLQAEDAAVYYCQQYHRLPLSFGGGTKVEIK

Changes read parent residue, position, new residue, counted from the first residue of the VH shown.
This list gathers variants with a substitution at T58 (VH, numbered from residue 1).
Values are apparent Kd, the geometric mean of the replicates that gave a signal; lower means stronger binding.
"nd" marks a missing value. The strain was present, yet no cells mated with the target were sequenced in any replicate, which points to weak or no binding.
For reference, the parent read 4.4 nM as the reference entry and 13 µM (one replicate of three) as a member of this library.
Three control strains display no target. For library AAYL49, 15% of the pairings with them gave a signal, with a median of 11 µM and one signal in twenty below 680 nM, so weak values seen in few replicates may be background. For each scFv, signals with the empty controls are counted beside the result.

The variant T58C showed 29 nM (3 of 3 replicates; controls 0 of 9). For S31F T58L V64D, the assay gave 190 µM (1 of 3 replicates; controls 0 of 9). For T58H G61T A101Y, the assay gave 9.6 nM (3 of 3 replicates; controls 1 of 9). For I34P T58R V64C, the assay gave 110 µM (2 of 3 replicates; controls 3 of 9). For I51K G55C T58R, the assay gave 18 µM (2 of 3 replicates; controls 2 of 9). For I51F T58M T104C, the assay gave nd (0 of 3 replicates; controls 0 of 9). The variant T28F I34D T58A gave nd (0 of 3 replicates; controls 0 of 9). For S31E T58V G61L, the assay gave 1.2 nM (3 of 3 replicates; controls 1 of 9). The variant L29Y G55M T58V showed 54 µM (2 of 3 replicates; controls 1 of 9).

The variant T58K G61C K65R gave 9.1 nM (3 of 3 replicates; controls 1 of 9). With R57Y T58V Y60H the result was nd (0 of 3 replicates; controls 1 of 9). For T58D R100D S107V, the assay gave 44 nM (3 of 3 replicates; controls 1 of 9). With T58D D62P the result was 380 nM (3 of 3 replicates; controls 2 of 9). The variant S53A R56T T58P gave nd (0 of 3 replicates; controls 0 of 9). With G55Y T58Y R100Y the result was nd (0 of 3 replicates; controls 1 of 9). The variant G26L T58A Y60H gave nd (0 of 3 replicates; controls 0 of 9). For T58C D62Y, the assay gave nd (0 of 3 replicates; controls 0 of 9). For I34P D54M T58Y, the assay gave nd (0 of 3 replicates; controls 2 of 9).

With L29M T58G G99M the result was 49 µM (3 of 3 replicates; controls 8 of 9). The variant T58Y T104A gave nd (0 of 3 replicates; controls 1 of 9). The variant F27V I51L T58A gave 680 nM (3 of 3 replicates; controls 1 of 9). The variant V50T G55N T58H gave nd (0 of 3 replicates; controls 0 of 9). The variant G26P T58S G103H showed nd (0 of 3 replicates; controls 0 of 9). For N30Y T58C, the assay gave 2.9 µM (3 of 3 replicates; controls 0 of 9). The variant F27K T58D S107Q showed nd (0 of 3 replicates; controls 1 of 9). With T58W Y60H the result was 16 µM (1 of 3 replicates; controls 1 of 9). For F27K S53L T58W, the assay gave 3.3 µM (1 of 3 replicates; controls 0 of 9).

For T58G F59Q S63W, the assay gave nd (0 of 3 replicates; controls 0 of 9). With Y52I T58P the result was 4.4 µM (1 of 3 replicates; controls 1 of 9). The variant N30R D54I T58W gave 3.1 µM (2 of 3 replicates; controls 2 of 9). The variant N30F V50S T58R showed 260 nM (1 of 3 replicates; controls 2 of 9). For T28I I51Q T58N, the assay gave 42 µM (2 of 3 replicates; controls 3 of 9). The variant T58D A101T S107N showed 1.3 µM (3 of 3 replicates; controls 3 of 9). With S35R T58F G99Y the result was 7.5 µM (1 of 3 replicates; controls 2 of 9). The variant Y32G G55P T58R gave nd (0 of 3 replicates; controls 0 of 9). The variant T28M T58R D62S gave 700 nM (3 of 3 replicates; controls 0 of 9).

With N30Q S31I T58D the result was 9.7 µM (1 of 3 replicates; controls 1 of 9). The variant S35L T58I S107M showed 54 µM (3 of 3 replicates; controls 5 of 9). With T58H G61N K65I the result was 16 µM (3 of 3 replicates; controls 8 of 9). The variant R57A T58S T104K gave 430 nM (1 of 3 replicates; controls 1 of 9). With R57T T58L F105H the result was nd (0 of 3 replicates; controls 0 of 9). For G33E T58H S63T, the assay gave nd (0 of 3 replicates; controls 0 of 9). The variant I34F T58S A102D showed 230 nM (3 of 3 replicates; controls 0 of 9). The variant T58Y D62K A101D gave nd (0 of 3 replicates; controls 0 of 9). With S53K T58K R100F the result was 43 µM (1 of 3 replicates; controls 0 of 9).

The variant S31E T58M R100S showed 16 nM (2 of 3 replicates; controls 0 of 9). For S35G V50G T58Q, the assay gave 500 µM (1 of 3 replicates; controls 1 of 9). The variant G55L T58S S107Y gave nd (0 of 3 replicates; controls 2 of 9). With G26M T58R the result was nd (0 of 3 replicates; controls 0 of 9). The variant T58I S107F showed 160 nM (3 of 3 replicates; controls 2 of 9). For I51P D54F T58E, the assay gave nd (0 of 3 replicates; controls 2 of 9). The variant V50L I51M T58F gave nd (0 of 3 replicates; controls 3 of 9).

For reference, 7 entries of the list once more:

The variant S31E T58M R100S gave 16 nM (2 of 3 replicates; controls 0 of 9).
The variant T58D R100D S107V gave 44 nM (3 of 3 replicates; controls 1 of 9).
The variant T58I S107F gave 160 nM (3 of 3 replicates; controls 2 of 9).
The variant T58G F59Q S63W gave nd (0 of 3 replicates; controls 0 of 9).
The variant T58C D62Y gave nd (0 of 3 replicates; controls 0 of 9).
The variant I51K G55C T58R gave 18 µM (2 of 3 replicates; controls 2 of 9).
The variant T28I I51Q T58N gave 42 µM (2 of 3 replicates; controls 3 of 9).